Data: patent publication US5280548A, “Emission based fiber optic sensors for pH and carbon dioxide analysis” (BOC Health Care, Inc., priority 1993, dated 1994)
Read-outs that look alike come from different tables or passages of the source.

What was measured:
[1] = Emission lifetime measurement; format: physicochemical; conditions: 37° C.
Description: 1969, 31, 1-13], as a standard.

[2] = for emission yield (Φ): 37° C.

With “seminaphthorhodaflor-1-carboxylate dextran conjugate [SNARF-1C-Dex]” the “lifetime (τ)” value ([1]; acid form) was 0.91 ns, the “lifetime (τ)” value ([1]; base form) was 1.39 ns and the “emission yield (Φ)” value ([2]; acid form) was “.024”. For the same substance, the “emission yield (Φ)” value ([2]; base form) was “.022” and the isosbestic point ([2]; emission spectra as a function of pH) was 620 nm.
